Test results taken from patent US7598384B2, “Tetrahydroquinolinones and their use as antagonists of metabotropic glutamate receptors” (Merz Pharma GmbH & Co. KGAA, priority 2004, dated 2009).

Amino acid sequences for entries named in this document (tags omitted). Residues count along the entry.
UniProt P31424, 21-1203: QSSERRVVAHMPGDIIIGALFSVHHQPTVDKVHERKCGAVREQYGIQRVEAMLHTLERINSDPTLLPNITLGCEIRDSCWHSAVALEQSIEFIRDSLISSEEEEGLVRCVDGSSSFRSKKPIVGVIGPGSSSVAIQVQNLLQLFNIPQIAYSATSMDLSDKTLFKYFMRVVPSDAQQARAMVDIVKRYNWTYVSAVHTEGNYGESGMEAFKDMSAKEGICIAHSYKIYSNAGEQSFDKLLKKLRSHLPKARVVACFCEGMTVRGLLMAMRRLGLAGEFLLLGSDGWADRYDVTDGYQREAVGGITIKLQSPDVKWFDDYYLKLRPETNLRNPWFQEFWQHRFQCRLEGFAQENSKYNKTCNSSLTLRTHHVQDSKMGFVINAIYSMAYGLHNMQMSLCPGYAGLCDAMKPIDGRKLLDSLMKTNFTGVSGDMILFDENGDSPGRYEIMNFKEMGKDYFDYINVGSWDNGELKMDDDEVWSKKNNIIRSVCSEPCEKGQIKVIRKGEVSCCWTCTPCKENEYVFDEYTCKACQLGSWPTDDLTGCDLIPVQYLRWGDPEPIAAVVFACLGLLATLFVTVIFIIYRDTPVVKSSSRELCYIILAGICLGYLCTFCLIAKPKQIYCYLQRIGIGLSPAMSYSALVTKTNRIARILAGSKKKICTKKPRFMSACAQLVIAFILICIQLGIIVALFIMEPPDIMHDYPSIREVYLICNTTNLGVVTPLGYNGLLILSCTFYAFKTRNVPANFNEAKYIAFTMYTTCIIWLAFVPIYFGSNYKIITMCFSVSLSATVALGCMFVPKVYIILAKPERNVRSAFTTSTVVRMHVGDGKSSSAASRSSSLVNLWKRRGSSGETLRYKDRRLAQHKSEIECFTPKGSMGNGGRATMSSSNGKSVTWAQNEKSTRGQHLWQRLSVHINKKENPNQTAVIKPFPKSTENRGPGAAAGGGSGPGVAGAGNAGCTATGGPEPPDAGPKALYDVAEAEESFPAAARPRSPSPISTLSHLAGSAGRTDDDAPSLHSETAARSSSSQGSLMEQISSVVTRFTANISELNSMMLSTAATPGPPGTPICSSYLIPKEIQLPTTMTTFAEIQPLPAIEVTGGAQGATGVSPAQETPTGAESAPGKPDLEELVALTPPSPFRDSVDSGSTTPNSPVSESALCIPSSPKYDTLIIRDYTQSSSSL

Target: T1, transmembrane allosteric modulatory sites of mGluR5 receptors (Rattus norvegicus, UniProt P31424)
T1 construct: The cortex is dissected and homogenized in 20 volumes of ice-cold 0.32 M sucrose; from tissue; host or cells: rat cerebral cortex membranes (male Sprague-Dawley)
Assay: [3H]MPEP binding to rat cortical membranes
Conditions: read-out: Kd of the radioligand by Scatchard analysis
Method: Preparation of Rat Cortical Membranes:
Male Sprague-Dawley rats (200-250 g) are decapitated and their brains are removed rapidly. The cortex is dissected and homogenized in 20 volumes of ice-cold 0.32 M sucrose using a glass-Teflon homogenizer. The homogenate is centrifuged at 1000×g for 10 min. […] All centrifugation steps are carried out at 4° C. After resuspension in 5 volumes of 50 mM Tris-HCl, pH 8.0 the membrane suspension is frozen rapidly at −80° C.
Incubations are terminated using a Millipore filter system.

Kd: 13.6 nM
Structure (SMILES): Cc1cccc(C#Cc2ccccc2)n1 [(^3H)-MPEP]
